From patent publication US20160207928A1, “NOVEL COMPOUNDS FOR THE TREATMENT OF CANCER” (BAYER PHARMA AKTIENGESELLSCHAFT, priority 2013, published 2016)

Sequences of proteins named here, by UniProt entry; tags and fusion partners are left off.
UniProt P33981, whole entry: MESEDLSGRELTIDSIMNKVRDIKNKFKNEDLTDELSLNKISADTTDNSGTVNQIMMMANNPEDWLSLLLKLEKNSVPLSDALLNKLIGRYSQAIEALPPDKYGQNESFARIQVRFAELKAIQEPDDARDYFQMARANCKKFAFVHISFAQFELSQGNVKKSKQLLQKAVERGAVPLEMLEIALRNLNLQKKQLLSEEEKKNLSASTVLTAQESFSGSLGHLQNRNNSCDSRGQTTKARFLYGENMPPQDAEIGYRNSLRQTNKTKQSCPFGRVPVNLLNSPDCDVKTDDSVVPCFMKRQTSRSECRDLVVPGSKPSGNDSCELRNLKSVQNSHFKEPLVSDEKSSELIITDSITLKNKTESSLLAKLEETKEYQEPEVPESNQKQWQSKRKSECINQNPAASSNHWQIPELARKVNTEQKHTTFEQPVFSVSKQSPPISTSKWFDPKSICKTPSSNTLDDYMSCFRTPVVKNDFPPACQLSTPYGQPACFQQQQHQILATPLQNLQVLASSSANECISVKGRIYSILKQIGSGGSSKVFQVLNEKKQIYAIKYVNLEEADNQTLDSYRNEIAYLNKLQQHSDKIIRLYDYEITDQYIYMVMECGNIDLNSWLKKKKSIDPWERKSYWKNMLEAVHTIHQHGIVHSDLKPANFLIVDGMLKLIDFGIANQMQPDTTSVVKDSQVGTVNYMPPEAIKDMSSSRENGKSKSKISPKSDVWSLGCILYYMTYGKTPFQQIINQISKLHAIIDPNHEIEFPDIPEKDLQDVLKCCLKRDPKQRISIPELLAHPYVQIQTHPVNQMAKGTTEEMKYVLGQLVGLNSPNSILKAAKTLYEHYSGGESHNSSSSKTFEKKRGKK

Molecular target: human kinase Mps-1 (Homo sapiens, UniProt P33981)
Test: Mps-1 kinase assay (TR-FRET, 10 μM ATP)
Conditions: read-out: Mps-1 Inhibition, IC50 (Assay with 10 μM ATP), N-terminally GST-tagged human full length recombinant Mps-1
Experimental: The human kinase Mps-1 phosphorylates a biotinylated substrate peptide. Detection of the phosphorylated product is achieved by time-resolved fluorescence resonance energy transfer (TR-FRET) from Europium-labelled anti-phospho-Serine/Threonine antibody as donor to streptavidin Labelled with cross-linked allophycocyanin (SA-XLent) as acceptor. Compounds are tested for their inhibition of the kinase activity.
N-terminally GST-tagged human full length recombinant Mps-1 kinase (purchased from Invitrogen, Karslruhe, Germany, cat. no PV4071) was used. […]
The resulting mixture was incubated 1 h at 22° C. to allow the binding of the phosphorylated peptide to the anti-phospho(Ser/Thr)-Europium-antibody. Subsequently the amount of phosphorylated substrate was evaluated by measurement of the resonance energy transfer from the Europium-labelled anti-phospho(Ser/Thr) antibody to the Streptavidin-XLent. Therefore, the fluorescence emissions at 620 nm and 665 nm after excitation at 350 nm was measured in a Viewlux TR-FRET reader (PerkinElmer LAS, Rodgau-Jügesheim, Germany). The “blank-corrected normalized ratio” (a Viewlux specific readout, similar to the traditional ratio of the emissions at 665 nm and at 622 nm, in which blank and Eu-donor crosstalk are subtracted from the 665 nm signal before the ratio is calculated) was taken as the measure for the amount of phosphorylated substrate. […]

Structure (SMILES): COc1cc(S(C)(=O)=O)ccc1Nc1nc2ccc(-c3ccc(NC(=O)Cc4ccc(F)cc4)cc3)nn2n1
- IC50: ≤ 1 nM
